Measurements: patent US9079913B2, “Spiro-oxindole MDM2 antagonists” (The Regents of the University of Michigan, priority 2009, dated 2015)
Like-named read-outs stand apart in the source and are kept apart here.

Experiments:
[1] = test system: cancer cell lines with wild-type p53 / mutated or deleted p53 (ATCC); test: Cell growth assay (WST-8), other cancer cell lines; format: cell-based
[2] = test system: Isogenic HCT-116 colon cancer cell lines; test: cells; format: cell-based; conditions: Homo sapiens;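 note: cells grown in 96-well plates in McCoy's 5A medium with 10% FBS, exposed to compound for 4 days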
[3] = Homo sapiens, PC-3, read-out: PC-3 (deleted p53) IC50

Compound	IC50 [1, 3] [µM]	IC50 ([1]; read-out: LNCAP (p53 wild-type) IC50) [µM]	IC50 ([2]; HCT-116, read-out: HCT-116 (p53-/-) IC50) [µM]	IC50 ([2]; HCT-116, read-out: HCT-116 (p53 wild-type) IC50) [µM]	IC50 ([1]; Homo sapiens, LNCaP, read-out: LNCAP (p53 wild-type) IC50) [µM]	IC50 ([1]; Homo sapiens, SJSA-1, read-out: SJSA-1 (p53 wild-type) IC50) [µM]
CC(C)(C)C[C@H]1N[C@@H](C(=O)NC2CCC(O)CC2)[C@H](c2cccc(Cl)c2F)[C@@]12C(=O)Nc1cc(F)c(F)cc12 (stereo partly shown) [MI-786]	14.4	1.2	–	–	–	–
CC(C)(C)C[C@H]1N[C@@H](C(=O)NC2CCC(O)CC2)[C@H](c2cccc(Cl)c2F)[C@@]12C(=O)Nc1cc(F)ccc12 (stereo partly shown) [MI-7105]	> 10	–	> 10	< 3	< 3	< 3
